Measurements from publication PMC8578508.

Assays:
[1] = molecular target: BRD4^1–722, phosphorylated in vitro by CK2 (human) (UniProt O60885); test: SEC-MALS + AUC; SEC-MALS on Superose 6 in 10 mM Tris-HCl pH 7.5 with 250 mM or 1 M NaCl; AUC sedimentation velocity and equilibrium in the same buffer, samples between 0.1 µM and 15 μM; oligomeric state of the protein alone
[2] = molecular target: BRD4^1–722, phosphorylated in vitro by CK2 (human) (UniProt O60885); test: SEC-MALS; BRD4^1–722 WT, 7A and 6A produced in E. coli and phosphorylated by CK2; Superose 6, 10 mM Tris-HCl pH 7.5
[3] = molecular target: BRD4^1–722, purified from insect cells (phosphorylated) (human) (UniProt O60885); test: SEC-MALS + AUC; SEC-MALS on Superose 6 in 10 mM Tris-HCl pH 7.5 with 250 mM or 1 M NaCl; AUC sedimentation velocity and equilibrium in the same buffer, samples between 0.1 µM and 15 μM; oligomeric state of the protein alone
[4] = molecular target: BRD4^1–579, phosphorylated in vitro by CK2 (human) (UniProt O60885); test: as above
[5] = molecular target: BRD4^1–579, purified from insect cells (phosphorylated) (human) (UniProt O60885); test: as above

stoichiometry N [1]: 2
stoichiometry N [2]: 2
Substance: BRD4^1–722, phosphorylated in vitro by CK2 (from UniProt O60885-2 1-722) (natural protein)

stoichiometry N [3]: 2
Substance: BRD4^1–722, purified from insect cells (phosphorylated) (from UniProt O60885-2 1-722) (natural protein)

stoichiometry N [4]: 2
Substance: BRD4^1–579, phosphorylated in vitro by CK2 (from UniProt O60885 1-579) (domain or fragment)

stoichiometry N [5]: 2
Substance: BRD4^1–579, purified from insect cells (phosphorylated) (from UniProt O60885 1-579) (domain or fragment)

One block for each substance: values may come before it.
